Only some compounds are listed: those with a hit (about 2.3% of all), similar ones and a draw of the others.
Nrf2 inh: Nrf2 pathway inhibition. A549 ARE-Fluc reporter, luciferase luminescence, 18-24 h. actives 2.1% (n = 360,000). Potency, µM (doses to about 46 µM), most hits filed as inhibitors. AID 504444; note: nearly all actives have a fitted effect of over 60% in size
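In this cell-based qHTS, ARE-driven firefly luciferase in A549 cells reports Nrf2 activity; the luminescent signal after BugLite lysis is the measured value, with a prior CellTiter-Fluor read for cell health.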
Nrf2 activator: activators of Nrf2 (ARE) signaling; Potency, µM (series often up to 46.1 µM), most hits filed as activators; AREc32 ARE-luciferase reporter (MCF7-derived line), luminescence, 24 h; actives 0.31% (n = 410,000); note: nearly all actives have a fitted effect of over 65% in size
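For detection, Steady-Glo was added and plates sat 30 min at RT; before that, AREc32_Fluc cells grown overnight in OPTI-MEM/5% FBS had been treated with 23 nL compound for 24 hr at 37 deg C.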
Glioma ERSR ind: induces the endoplasmic reticulum stress response in human glioma cells; U87-MG GRP78 promoter luciferase reporter, 16 h; Potency, µM, most hits filed as activators; actives 0.02% (n = 420,000); AID 602332; note: series mostly up to about 76 µM; nearly all actives have a fitted effect of over 35% in size
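Stably transfected U87-MG human glioma cells carrying a GRP78-based luminescent sensor were seeded at 1000 cells/well, pin-dosed with compounds and incubated 16 h. Luciferase reagent was then added, and end-point luminescence was read after 10 min at room temperature.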
miR-21 reporter: raises the signal of a miR-21 reporter. Potency, µM (highest dose often 38.3 µM). 340,000 tested, under 10 active. HeLa miR-21 FLuc reporter, luciferase, 48 h; active = well fitted rising curve with a large enough effect; inconclusive = small, poorly fitted or top-dose-only effect; inactive = no such curve, though single readings can be large or run the other way;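 further: miR-21 action dims this reporter so a rising signal means less miR-21 action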
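Using DMEM plus 10% FBS, HeLa miR-21-FLuc cells are incubated with test compounds (final up to about 40uM) for 48 hours; firefly luciferase signal is then imaged following reagent-mediated lysis.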
Mito fusion act: mitochondrial division inhibition or fusion activation; Potency, µM (series often up to 46.1 µM), usual class: activators; actives 0.23% (n = 320,000); S. cerevisiae fusion-defective mutant growth rescue, CellTiterGlo 48 h; note: nearly all actives have a fitted effect of over 45% in size
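Temperature-sensitive fusion-defective S. cerevisiae (e.g. fzo1-1, mgm1-5) were grown with compound in YPEG medium (3% ethanol, 3% glycerol) for 48 hours at 37C. Growth rescue was measured as viability by CellTiterGlo luminescence after 10 minutes at ambient.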
A549 tox: counter-screen for Nrf2 inhibitors: cytotoxicity in A549 cells | actives 0.16% (n = 390,000) | A549 ARE-Fluc cells, CellTiter-Fluor viability, 18-24 h | Potency, µM (highest dose often 46 µM), most hits filed as inhibitors
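A549 ARE_Fluc cells in 5% FBS OPTI-MEM were exposed to compounds in concentration-response for 18-24 h at 37 deg C. Viability was read by CellTiter-Fluor fluorescence (Ex 405/Em 525) after 30 min, before the luciferase read.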
Each line names hits and unclear results; the compound was inactive in the other large screens. Unless noted, calls come from the whole dose curve; as a rule, active = well fitted curve in the direction sought with a large enough effect; inconclusive = small, poorly fitted or top-dose-only effect, or another doubt; inactive = no such curve, though single readings can be large; an effect the other way counts as inactive or inconclusive.

COc1ccc(N2CCN(C(=O)c3ccc(N(C)S(=O)(=O)c4ccc(C)cc4)cc3)CC2)cc1	Nrf2 inh 18µM
COc1cc(C(=O)NCCc2ccc(S(N)(=O)=O)cc2)cc(OC)c1OC	Nrf2 inh inconclusive
COc1ccccc1CNC(=O)c1cc(-c2ccccc2)nn1CC1CC(c2cccc([N+](=O)[O-])c2)=NO1 (stereo not drawn)	none (no result: miR-21 reporter, Mito fusion act)
COc1ccc2cc[nH]c2c1	none
C=CCNC(=O)/C(C#N)=C/c1c(N(Cc2ccccc2)Cc2ccccc2)nc2ccccn2c1=O	Nrf2 inh 26µM, miR-21 reporter inconclusive, Mito fusion act inconclusive, A549 tox inconclusive
CCOC(=O)c1ccccc1NC(=O)Cc1ccc(OC)c(S(=O)(=O)N2CCOCC2)c1	Nrf2 inh 18µM (no result: miR-21 reporter, Mito fusion act)
COc1cc(OC)c(NC(=O)Nc2ccc3c(c2)N(C)C(=O)c2ccccc2S3)cc1Cl	Nrf2 inh 21µM (no result: Mito fusion act)
CCOC(=O)CSC1=C(C#N)C(c2ccc(C)s2)CC(=O)N1 (stereo not drawn)	Nrf2 inh 21µM, A549 tox inconclusive
O=C(Nc1cccc(NC(=O)c2cccs2)c1)c1ccc(Br)o1	none
COc1ccc2cc(CCNC(=O)c3cc4ccccc4o3)c(=O)[nH]c2c1	Nrf2 inh 10µM
CCOc1ccc(CNC(=O)c2ccc3[nH]c(C)c(C)c3c2)cc1OC	Nrf2 inh inconclusive (no result: Mito fusion act)
CC1(c2ccccc2)CC(C)(C)N2C(=O)C3(C(C#N)=C(N)Oc4cc(O)ccc43)c3cccc1c32 (stereo not drawn)	Nrf2 inh 21µM, A549 tox inconclusive
Cc1cc2c3c(c1)C(C)(c1ccccc1)CC(C)(C)N3C(=O)C21C(C#N)=C(N)OC2=C1C(=O)CC(C)(C)C2 (stereo not drawn)	miR-21 reporter inconclusive
CCOC(=O)c1cc(CN2CCOCC2)oc1-c1ccccc1	none
O=C(NCc1ccc(Cl)cc1)c1cccnc1	none
Cc1ccc(OCc2ccc(C(=O)NCc3cccnc3)cc2)cc1C	Nrf2 inh 23µM
COC(=O)/C(=C\c1cccnc1)NC(=O)c1ccc(OCc2ccccc2)cc1	Nrf2 inh 16µM
O=C(NCc1cccnc1)c1ccc(COc2ccc(Cl)cc2)cc1	Nrf2 inh 23µM
O=C(COc1ccc(Cl)cc1)Nc1ccc(C(=O)NCc2cccnc2)cc1	Nrf2 inh 21µM
O=C1CN(C(=O)COc2ccc(Cl)cc2Cl)c2ccccc2N1	none
COc1cc(OC)c(OC)cc1CNC(=O)c1ccc(COc2ccccc2)cc1	Nrf2 inh 16µM
O=C(COc1ccc(-c2ccccc2)cc1)Nc1cccnc1	Nrf2 inh 16µM, Mito fusion act inconclusive (no result: miR-21 reporter)
COc1ccc(CN(C)C(=O)c2ccc(COc3ccccc3)cc2)c(OC)c1	Nrf2 inh inconclusive
C=CCCOc1ccccc1C(N)=O	Nrf2 inh inconclusive
COC(=O)C(=Cc1ccc(-c2ccsc2C(=O)OC)o1)C(=O)OC	Nrf2 activator 13µM, A549 tox inconclusive
CNC(=S)N/N=C/c1cc(C)n(-c2ccc(Cl)c(Cl)c2)c1C	none (no result: Mito fusion act)
Cc1cc(C)c(C#N)c(SCC(=O)c2ccccc2)n1	Nrf2 activator 2.8µM, Mito fusion act inconclusive
O=C(CSc1nncn1-c1cccnc1)N(c1ccccc1)c1ccccc1	none
CC(C)Cn1cc(NC(=O)Nc2cccc(C(F)(F)F)c2)c2ccccc2c1=O	Nrf2 inh 23µM, miR-21 reporter inconclusive (no result: Mito fusion act)
CC(C)Cn1cc(NC(=O)N2CCN(c3cccc(C(F)(F)F)c3)CC2)c2ccccc2c1=O	none (no result: Mito fusion act)
Cc1sc2ncnc(N3CCC(C(=O)Nc4ccc(Cl)cc4Cl)CC3)c2c1C	Nrf2 inh inconclusive, Mito fusion act inconclusive (no result: miR-21 reporter)
Cc1sc2ncnc(N3CCC(C(=O)Nc4ccc(Cl)c(Cl)c4)CC3)c2c1C	Nrf2 inh inconclusive, Mito fusion act inconclusive (no result: miR-21 reporter)
COc1ccccc1OCC(=O)NNC(=O)C1CCN(c2ncnc3sc(C)c(C)c23)CC1	Nrf2 inh 23µM (no result: miR-21 reporter)
Cc1sc2ncnc(N3CCC(C(=O)Nc4ccc(Br)cc4Br)CC3)c2c1C	Nrf2 inh 21µM (no result: miR-21 reporter)
Cc1sc2ncnc(N3CCC(C(=O)NCC(=O)Nc4ccc(F)c(F)c4)CC3)c2c1C	Nrf2 inh 18µM, A549 tox inconclusive
Cc1ccccc1OCC(=O)NNC(=O)C1CCN(c2ncnc3sc(C)c(C)c23)CC1	Nrf2 inh inconclusive (no result: miR-21 reporter)
Cc1cccc(N2CCN(C(=O)CSc3ccsc3[N+](=O)[O-])CC2C)c1 (stereo not drawn)	none
COc1ccc(C(=O)c2cc([N+](=O)[O-])ccc2N2CCN(C)CC2)cc1	A549 tox 15µM
Oc1ccccc1N1CCN(CC(O)COC2CCCc3ccccc32)CC1 (stereo not drawn)	none
COc1ccc(NC(=O)/C(C#N)=C/c2cc(C)n(-c3ccc(N4CCOCC4)c([N+](=O)[O-])c3)c2C)cc1	Nrf2 inh 6.5µM
Cc1cc(/C=C(\C#N)C(=O)Nc2ccc(F)cc2)c(C)n1-c1ccc(N2CCOCC2)c([N+](=O)[O-])c1	Nrf2 inh inconclusive
O=C(NCc1ccncc1)c1cccc(S(=O)(=O)Nc2ccc(SC(F)F)cc2)c1	Nrf2 inh 15µM (no result: miR-21 reporter)
O=C(NCc1ccccn1)c1cccc(S(=O)(=O)Nc2ccc(SC(F)F)cc2)c1	none (no result: miR-21 reporter)
CC(=O)N1N=C(c2ccc(Cl)cc2)CC1c1ccc([N+](=O)[O-])cc1 (stereo not drawn)	Nrf2 inh inconclusive
CC1(O)CC(c2ccc(Cl)cc2)=NN1C(=O)c1ccc([N+](=O)[O-])cc1 (stereo not drawn)	Nrf2 inh 18µM, A549 tox inconclusive
CCOc1ccccc1N(C)C(=O)Cn1ncc2c([nH]c3ccccc32)c1=O	none
Cc1ccc(CN(C(=O)c2ccc(F)cc2)c2ccccn2)o1	none (no result: Mito fusion act)
CCCCOc1cccc(C(=O)N(Cc2ccc(C)o2)c2ccccn2)c1	Nrf2 inh 15µM (no result: Mito fusion act)
O=C(COc1cccc(C(F)(F)F)c1)Nc1ccc2[nH]ncc2c1	Nrf2 inh inconclusive
COc1ccc2o/c(=N\O)c(C(=O)Nc3ccccc3OC)cc2c1	none
COc1ccc(NC(=O)c2cc3ccc(O)cc3o/c2=N\O)cc1	Nrf2 inh 2.1µM, A549 tox inconclusive
Cc1cccc(Cl)c1NC(=O)N1CCCN(c2ncccc2[N+](=O)[O-])CC1	none
CCOC(=O)c1ccc(NC(=S)N2CCC(O)CC2)cc1	Nrf2 inh inconclusive
CCOC(=O)c1ccc(NC(=S)N2CCSC2c2ccc(Br)cc2)cc1 (stereo not drawn)	Nrf2 inh inconclusive, Glioma ERSR ind inconclusive, Mito fusion act 22µM
O=C(Nc1cccc2ccccc12)/C(Cl)=C/c1ccccc1	Nrf2 activator 10µM, Mito fusion act inconclusive (no result: Nrf2 inh)

Source: PubChem BioAssay (National Center for Advancing Translational Sciences (NCATS))
